Our source for the Ki values is ChEMBL document CHEMBL1212704, “Structural and biochemical evidence for a boat-like transition state in beta-mannosidases” (Nat Chem Biol, 2008).

This assay can be described thus: Inhibition of wild type Bacteroides thetaiotaomicron beta-mannosidase 2A expressed in Escherichia coli BL21 (DE3) at 37 degC and Ph 5.6 by 2,4-dinitrophenolate release assay.

The Ki is a measure of affinity in units of concentration, obtained from inhibition or displacement. Take `OC[C@H]1C[C@H]2[C@@H](O)[C@@H](O)[C@@]1(O)CN2Cc1ccccc1`: the affinity, expressed as Ki, was 13 µM. This counts as double-digit micromolar.
